Earlier results as cited in US20230310455A1, “COMBINATION THERAPIES FOR TREATMENT OF HER2 CANCER” (Genentech, Inc., priority 2020, published 2023).

Protein sequences, listed by entry. Tags and fused reporters are not part of them.
UniProt P03372, whole entry: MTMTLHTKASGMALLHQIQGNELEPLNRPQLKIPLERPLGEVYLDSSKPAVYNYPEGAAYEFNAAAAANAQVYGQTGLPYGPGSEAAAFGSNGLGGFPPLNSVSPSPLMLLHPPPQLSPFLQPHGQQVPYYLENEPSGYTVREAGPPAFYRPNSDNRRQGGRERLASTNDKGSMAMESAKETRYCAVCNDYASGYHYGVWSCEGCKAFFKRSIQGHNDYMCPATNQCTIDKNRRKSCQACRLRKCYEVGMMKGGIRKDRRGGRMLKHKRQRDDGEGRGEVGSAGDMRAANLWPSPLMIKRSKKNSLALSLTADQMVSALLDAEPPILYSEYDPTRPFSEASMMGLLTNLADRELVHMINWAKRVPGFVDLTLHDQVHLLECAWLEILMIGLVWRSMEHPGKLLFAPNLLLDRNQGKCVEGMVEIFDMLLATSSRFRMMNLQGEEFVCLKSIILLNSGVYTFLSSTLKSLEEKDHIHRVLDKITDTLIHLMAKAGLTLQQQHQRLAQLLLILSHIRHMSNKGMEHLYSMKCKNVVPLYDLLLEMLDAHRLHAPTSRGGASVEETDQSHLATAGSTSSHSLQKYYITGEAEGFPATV

Biological target: ER (Homo sapiens, UniProt P03372)
Conditions: greater than tamoxifen; cited from earlier work

SMILES: C[C@]12CC[C@@H]3c4ccc(O)cc4C[C@@H](CCCCCCCCC[S+]([O-])CCCC(F)(F)C(F)(F)F)[C@H]3[C@@H]1CC[C@@H]2O (stereo partly drawn) [fulvestrant, (7α,17β)-7-{9-[(4,4,5,5,5-pentafluoropentyl)sulfinyl]nonyl}estra-1,3,5(10)-triene-3,17-diol]
- affinity for the ER relative to that of tamoxifen: approximately 100 fold
